In general, pKa refers to the pH at which an ionisable group is half protonated. Lower therefore signals a stronger acid or weaker base.

The nature of the data set: Dissociation constant was reported. Format: physicochemical.

Regarding `CN1CCN(CCCN2c3ccccc3Sc3ccc(C(F)(F)F)cc32)CC1` [TRIFLUOPERAZINE], the pKa was 3.9.

(Values after ChEMBL document CHEMBL1121747, “Side-chain effects on phenothiazine cation radical reactions” (J Med Chem, 1981).)
